Source: US20020032166A1, “Biocompatible cationic detergents and uses therefor” (University Technology Corporation, priority 1992, published 2002)

Test: Apparent water/1-octanol partition coefficient of SDS hydrophobic ion pair complexes
Details: stoichiometric SDS; UV-visible absorption spectroscopy

For “SDS-HSA complex: hydrophobic ion pair complex of human serum albumin with SDS”, the “partitioning into 1-octanol with SDS” value was “could not be detected”.
